## scFv variants of Ab-95 (light chain) against a SARS-CoV-2 spike peptide

The target is the same throughout: PDVDLGDISGINAS, from the HR2 region of SARS-CoV-2 spike.

Each scFv is VH, a (GGGGS)3 linker, VL, as in the parent Ab-95, and differs from it in the CDRs of the light chain only.
VH: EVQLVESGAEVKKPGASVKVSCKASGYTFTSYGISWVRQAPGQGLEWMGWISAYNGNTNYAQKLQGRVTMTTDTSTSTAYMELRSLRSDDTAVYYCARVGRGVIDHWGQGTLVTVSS
VL: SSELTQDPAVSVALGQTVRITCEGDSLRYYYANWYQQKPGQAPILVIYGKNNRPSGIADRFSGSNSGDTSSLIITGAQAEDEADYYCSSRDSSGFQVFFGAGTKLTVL

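The starting antibody came from a phage panning campaign against this peptide. The library (AAYL52) carries one to three amino acid substitutions per variant, with no insertions or deletions. In AlphaSeq, yeast of one mating type display the scFv and yeast of the other type display the target. Mating (16 h, 30 °C) was followed by selection of diploids and sequencing of their barcodes. The ratio of observed to expected reads was calibrated, replicate by replicate, on BCL2-family standards whose Kd was known from biolayer interferometry. Each pool was mated in three replicate cultures.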

Changes read parent residue, position, new residue, counted from the first residue of the VL shown.
Scale: log10 of Kd in nM, estimated from mating counts; low values are strong binders.
Replicates are averaged; those with no signal do not enter the mean.
An entry "ND" has no value in the source: the pair was not observed among the diploids in that replicate. This suggests poor binding but is not conclusive.
In this assay the parent's reference entry averaged 2.31; its copy inside this library read 2.25.

changes	log10 Kd (nM) by replicate	mean log10 Kd (nM)	control signals
G24S+A32Q+F95M	3.85 / 5.09 / 4.01	4.32	4 of 9 (3.48)
S26K+K50D+R90A	ND / 4.52 / ND	4.52	1 of 9 (4.39)
G49I+S55E+S89L	ND / ND / ND	ND	1 of 9 (2.98)
L27W+N33E+G49D	5.77 / ND / ND	5.77	0 of 9
S26R+A32S	4.29 / ND / ND	4.29	1 of 9 (3.78)
N51H+S89I+F95S	ND / ND / ND	ND	1 of 9 (3.61)
D25R+Y30V+R53H	3.17 / 3.21 / 2.85	3.08	4 of 9 (3.70)
G49R+N51C+G94S	4.29 / 4.43 / ND	4.36	4 of 9 (4.12)
G24I+S55M+S88A	ND / 3.24 / 3.28	3.26	5 of 9 (4.39)
Y31A+Q96I+F98C	1.60 / 1.64 / 0.82	1.35	2 of 9 (3.40)
D25E+L27E+R28S	ND / 2.40 / ND	2.40	0 of 9
N33I+F95K+F98Q	5.43 / ND / ND	5.43	1 of 9 (4.56)
E23K+Y30R	1.87 / 1.82 / 1.46	1.72	2 of 9 (4.88)
L27Q+G49K+N52G	4.22 / ND / 3.86	4.04	3 of 9 (4.69)
L27P+Y30A+G49W	ND / ND / ND	ND	1 of 9 (3.58)
R28G+S88L+F98Q	2.60 / 3.89 / ND	3.25	0 of 9
G24D+Y30K+N51P	ND / ND / 3.25	3.25	2 of 9 (4.03)
R28C+A32R+G49K	4.25 / ND / ND	4.25	0 of 9
S26V+K50D+S88C	3.88 / 3.76 / 4.22	3.95	0 of 9
N52W+F95T+V97L	ND / ND / ND	ND	2 of 9 (3.68)
S26N+N51A+S89R	4.41 / ND / ND	4.41	4 of 9 (4.34)
L27T+A32S+N52T	3.33 / 3.46 / 2.80	3.19	1 of 9 (3.87)

The remaining entries, values ahead:

log10 Kd (nM) by replicate	mean log10 Kd (nM)	control signals	changes
ND / ND / ND	ND	3 of 9 (3.84)	S88Q+S89K+Q96S
4.79 / 4.82 / ND	4.80	6 of 9 (3.93)	N51M+R53S+F95P
3.39 / 2.58 / ND	2.99	2 of 9 (4.11)	N51T+S89G+G94R
3.35 / 3.41 / 4.26	3.67	4 of 9 (4.43)	K50H+S89Y
3.82 / 5.17 / ND	4.49	1 of 9 (4.21)	N52G+P54E+Q96F
ND / ND / ND	ND	2 of 9 (4.01)	R28L+N51Y+R90D
4.18 / ND / ND	4.18	0 of 9	E23R+G24K+S93T
ND / ND / ND	ND	1 of 9 (3.02)	D25G+R90E+D91V
ND / ND / ND	ND	3 of 9 (3.80)	Y29R+S89M+S93Y
2.65 / 3.35 / ND	3.00	4 of 9 (4.02)	S55N+D91G+G94F
4.35 / 4.62 / 4.33	4.43	2 of 9 (3.78)	R28E+S93H+G94H
1.85 / 2.20 / 2.11	2.05	1 of 9 (4.10)	R28C+Y30S+Q96D
2.22 / 1.93 / 2.39	2.18	3 of 9 (3.78)	D25E+R90G+F98C
4.44 / 4.00 / ND	4.22	3 of 9 (4.30)	N52Q+P54E+R90S
2.50 / 3.05 / 3.76	3.10	3 of 9 (3.58)	S26I+R28N+F98L
4.13 / 3.51 / ND	3.82	1 of 9 (4.39)	N51D+P54D+S93A
ND / ND / ND	ND	0 of 9	S88K+S89V+S92V
3.14 / 3.41 / 2.94	3.16	2 of 9 (4.06)	K50A+P54V+S92T
2.02 / 2.14 / 2.72	2.29	3 of 9 (3.53)	D25K+R28M
2.22 / 3.07 / 2.55	2.61	4 of 9 (3.88)	E23Q+S89H+G94F
5.43 / ND / ND	5.43	2 of 9 (3.80)	S93L+F95P+F98Q
3.05 / ND / ND	3.05	1 of 9 (3.80)	K50L+S55D+S92F
ND / ND / 4.25	4.25	1 of 9 (4.07)	Y29N+Y30W+G49K

6 of these entries, quoted again:

changes,log10 Kd (nM) by replicate,mean log10 Kd (nM),control signals
E23R+G24K+S93T,4.18 / ND / ND,4.18,0 of 9
S26V+K50D+S88C,3.88 / 3.76 / 4.22,3.95,0 of 9
R28L+N51Y+R90D,ND / ND / ND,ND,2 of 9 (4.01)
G24D+Y30K+N51P,ND / ND / 3.25,3.25,2 of 9 (4.03)
D25G+R90E+D91V,ND / ND / ND,ND,1 of 9 (3.02)
N51H+S89I+F95S,ND / ND / ND,ND,1 of 9 (3.61)

Nonspecific signal, from three strains lacking the peptide, appeared in 28% of pairings of library AAYL52, centred on 3.91 (5% of these signals below 2.90); values are not corrected for it. Also given: how often the same scFv was detected with the empty control strains, with their mean in brackets.

The measurements come from Engelhart et al. 2022 (doi:10.1038/s41597-022-01779-4) through the FLAb antibody collection.